The results in this text go back to paper PMC3411647 (PLoS ONE, 2012).

The chains behind the UniProt entries cited, without tags or fusion partners. Where a name states a change or a piece, a line headed by the entry shows the natural chain unless it says otherwise.
UniProt Q9QYN8: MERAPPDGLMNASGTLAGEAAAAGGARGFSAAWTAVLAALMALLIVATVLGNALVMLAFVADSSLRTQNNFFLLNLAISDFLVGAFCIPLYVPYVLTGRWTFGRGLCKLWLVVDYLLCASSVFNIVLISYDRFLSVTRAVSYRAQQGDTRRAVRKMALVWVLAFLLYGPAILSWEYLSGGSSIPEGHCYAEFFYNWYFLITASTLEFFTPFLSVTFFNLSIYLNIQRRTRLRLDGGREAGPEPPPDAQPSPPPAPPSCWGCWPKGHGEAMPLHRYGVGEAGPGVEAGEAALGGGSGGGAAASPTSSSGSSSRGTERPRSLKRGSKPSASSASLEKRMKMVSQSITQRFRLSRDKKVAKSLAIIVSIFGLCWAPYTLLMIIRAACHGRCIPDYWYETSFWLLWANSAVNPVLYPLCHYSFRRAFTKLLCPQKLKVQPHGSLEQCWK

SMILES strings stand for the structures.

The assay addresses T1, rat brain H3R (Rattus norvegicus, UniProt Q9QYN8).
T1 construct: from tissue; host or cells: rat cerebral cortex membranes
The assay is described as follows: Competitive/saturation binding with [3H]N-α-methylhistamine, rat cerebral cortex membranes. The protocol: Figure 4 Competition binding experiments with [^3H]-N-α-methylhistamine. […] The presented data are the means ±SE of values from a single experiment performed in duplicate and are representative of three to six separate experiments.
The membranes (50 µg of protein) were incubated with [^3H] N-α-methylhistamine at various concentrations (from 0.03 nM to 50 nM) for saturation binding assays. For competitive binding assays, the membranes (50 µg of protein) were incubated with 10 nM [^3H] N-α-methylhistamine for recombinant hH3R or 2nM [^3H] N-α-methylhistamine for rat brain H3R in the presence of various compound concentrations in the buffer (50 mM Tris–HCl, pH 7.4). […] Following three washes, the membrane-bound radioactivity was measured on a Topcount (PerkinElmer) at 20°C. […] IC50 values were converted to Ki values using the Cheng-Prusoff equation. Each experiment was performed in duplicate and repeated three to six times. All data were analyzed by nonline arregression using GraphPad Prism version 4.0 software.

As usually defined, the Ki is the dissociation constant of the complex between target and ligand, obtained from inhibition or displacement. Lower therefore signals a stronger hold on the target. For `N=C(N)SCCc1cnc[nH]1` [imetit, S-[2-(4-imidazolyl)ethyl]isothiourea], the affinity corresponds to a Ki of 0.11 ± 0.02 nM.
